# Data reported in patent US20040266823A1 (priority 2001, published 2004).
# Sequences of proteins named here, by UniProt entry; tags and fusion partners are left off.
# UniProt P51681, whole entry: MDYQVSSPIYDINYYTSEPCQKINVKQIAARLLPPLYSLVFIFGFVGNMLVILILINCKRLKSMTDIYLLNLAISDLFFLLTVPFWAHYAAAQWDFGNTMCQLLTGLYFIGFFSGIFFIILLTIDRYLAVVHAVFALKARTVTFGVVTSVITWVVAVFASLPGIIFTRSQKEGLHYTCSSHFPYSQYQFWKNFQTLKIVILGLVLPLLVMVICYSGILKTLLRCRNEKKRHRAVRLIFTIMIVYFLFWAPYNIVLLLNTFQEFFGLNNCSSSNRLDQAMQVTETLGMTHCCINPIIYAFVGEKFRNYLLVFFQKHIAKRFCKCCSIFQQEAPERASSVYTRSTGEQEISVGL
# Target: recombinant human CCR5 receptor (Homo sapiens, UniProt P51681)
# Experiment: MIP-1α radioligand binding assay (scintillation proximity)
# Settings: displacement of 0.1 nM iodinated MIP-1α, membranes from Chinese hamster ovary cells, average if tested more than once
# Method: The ability of compounds to inhibit the binding of MIP-1α was assessed by an in vitro radioligand binding assay. Membranes were prepared from Chinese hamster ovary cells which expressed the recombinant human CCR5 receptor. These membranes were incubated with 0.1 nM iodinated MIP-1α, scintillation proximity beads and various concentrations of the compounds of the invention in 96 well plates. The amount of iodinated MIP-1α bound to the receptor was determined by scintillation counting. Competition curves were obtained for compounds and the concentration of compound which displaced 50% of bound iodinated MIP-1α was calculated (IC50).
# In Table II the results are presented as Pic50 values. A Pic50 value is the negative log (to base 10) of the IC50 result, so an IC50 of 1 μM (that is 1×10^−6M) gives a Pic50 of 6. If a compounds was tested more than once then the data below is an average of the probative tests results.
Pic50 (tested form: HCl),Pic50,Structure (SMILES)
7.01,–,CCN(C(=O)Cc1ccc(S(C)(=O)=O)cc1)C1CCN(CC[C@H](NC(=O)c2cnsn2)c2ccccc2)CC1
–,8.2,CCN(C(=O)Cc1ccc(S(C)(=O)=O)cc1)C1CCN(CC[C@H](NC(=O)NC2CCCC2)c2ccccc2)CC1
